Consider one substance from publication PMC4188773 (Cell calcium, 2014).

Data set [1] addresses T1, mouse eugenol OR (mOR-EG) (Mus musculus, UniProt Q920P2).
T1 sequence (Q920P2 1-313): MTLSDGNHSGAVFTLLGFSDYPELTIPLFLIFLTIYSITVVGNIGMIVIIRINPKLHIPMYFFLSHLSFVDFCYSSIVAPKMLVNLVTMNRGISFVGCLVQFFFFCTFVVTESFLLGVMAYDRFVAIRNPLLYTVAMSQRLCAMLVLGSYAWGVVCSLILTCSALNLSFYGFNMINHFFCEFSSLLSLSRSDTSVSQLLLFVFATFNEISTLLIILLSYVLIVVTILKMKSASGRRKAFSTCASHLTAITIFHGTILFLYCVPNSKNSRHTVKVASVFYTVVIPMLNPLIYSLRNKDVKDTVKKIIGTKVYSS
Briefly: mOR-EG/AC Ca2+ imaging: mOR-EG + Gαolf + CNGC-camp in HEK293T cells. In kind it is cell-based. The conditions noted are these: read-out: AC-mediated Ca2+ response, EC50.

The target of data set [2] is T1, mouse eugenol OR (mOR-EG). Briefly: mOR-EG/PLC Ca2+ imaging: mOR-EG + Gα15 in HEK293T cells. It is filed as cell-based. The note with it: read-out: PLC-mediated Ca2+ response, EC50.
For data set [3] the following is noted: pH 7; cited from earlier work.
For data set [4] the following is noted: source not stated; cited from earlier work.

Broadly, the EC50 is the concentration needed to bring the measured effect to its halfway point. Turning to isoeugenol, the values for the EC50 in data set [1] and in data set [2] were 286 µM and 35.4 µM, respectively. For the same substance, the solubility in data set [3] is reported as 7.3/3.08 mmol/l. For the same substance, the logP in data set [4] is on record as 7.3/3.08.
